Measurements as given in PubChem BioAssay AID540308 (The Scripps Research Institute Molecular Screening Center, 2011).
Only a part is listed here, and it is no random draw. The source made the active and inactive calls.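 The calls were made as follows: active = activation above a per-plate cutoff, the mean activation of sample wells on that plate plus 3 SD (cut at about 8% in these data); inactive = the rest.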

Chains of the proteins cited; added tags and fusions are not shown.
UniProt P32245, whole entry: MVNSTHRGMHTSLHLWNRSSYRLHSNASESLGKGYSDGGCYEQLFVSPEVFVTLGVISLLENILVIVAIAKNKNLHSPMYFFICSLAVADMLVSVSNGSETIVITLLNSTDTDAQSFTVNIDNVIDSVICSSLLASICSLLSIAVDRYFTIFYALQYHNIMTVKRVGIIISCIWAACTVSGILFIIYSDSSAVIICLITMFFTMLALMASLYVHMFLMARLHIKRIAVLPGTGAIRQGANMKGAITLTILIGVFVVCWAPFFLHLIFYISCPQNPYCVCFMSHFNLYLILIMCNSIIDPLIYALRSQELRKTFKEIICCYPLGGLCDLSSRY

biological target: Melanocortin receptor 4 (Homo sapiens) (UniProt P32245); assay: activators of MC4R beta-arrestin recruitment – cell-based, luminescence, agonist arm of biased-ligand search, primary screen (AID 540308); details: U2OS MC4R beta-arrestin complementation, at 8.9 µM, hits give high values, percent of melanotan II response, DMSO zero

Compound | activation
CCOC(=O)C(CC)C1=NC(C)(C)Cc2ccccc21.O=[N+]([O-])c1cc([N+](=O)[O-])c(O)c([N+](=O)[O-])c1 (stereo not given) | inactive: -1.21%
O=[N+]([O-])c1cc([N+](=O)[O-])c(Nc2nnnn2CCO)c([N+](=O)[O-])c1 | inactive: -2.52%
CC1=C2N=C(C=C3N=C(C(C)=C4[N-][C@@](C)([C@@H]5N=C1[C@](C)(CCC(=O)NC[C@@H](C)OP(=O)([O-])O[C@H]1[C@@H](O)[C@@H](n6cnc7cc(C)c(C)cc76)O[C@@H]1CO)[C@H]5CC(N)=O)[C@@](C)(CC(N)=O)[C@@H]4CCC(N)=O)[C@@](C)(CC(N)=O)[C@@H]3CCC(N)=O)C(C)(C)[C@@H]2CCC(N)=O.[C-]#N.[Co+3] | inactive: -2.72%
CN1CCCCC1COC(=O)C1(O)c2ccccc2CCc2ccccc21 (stereo not given) | inactive: -1.87%
COc1ccccc1OP(C)(=O)Nc1c(C)cccc1C (stereo not given) | inactive: 1.87%
CP(=O)(Nc1ccc(SC(F)(F)F)cc1)Oc1ccccc1 (stereo not given) | inactive: -0.72%
CCCOc1ccc(NP(C)(=O)Oc2ccc(Cl)cc2)cc1 (stereo not given) | inactive: -1.05%
O=[N+]([O-])c1cc([N+](=O)[O-])c(-n2nnc3ccccc32)c([N+](=O)[O-])c1 | inactive: -1.66%
O=[N+]([O-])c1cc([N+](=O)[O-])c(-c2cnn(-c3ccccc3)c2)c([N+](=O)[O-])c1 | inactive: 0.81%
Cc1nc2ccc3ccccc3c2s1.O=[N+]([O-])c1cc([N+](=O)[O-])c(O)c([N+](=O)[O-])c1 | inactive: -2.59%
CP(=O)(Oc1ccccc1)OC(c1ccccc1)C(F)(F)F (stereo not given) | inactive: -1.1%
CP(=O)(Nc1ccc(SC(F)(F)F)cc1)Oc1ccc(Cl)cc1 (stereo not given) | inactive: 4.74%
Cc1ccc(Nc2c([N+](=O)[O-])cc([N+](=O)[O-])cc2[N+](=O)[O-])cc1 | inactive: -1.81%
Cc1cccc(C)c1OP(C)(=O)Nc1ccc(SC(F)(F)F)cc1 (stereo not given) | inactive: 3.77%
Cc1cc(C)cc(OP(C)(=O)Nc2ccc(SC(F)(F)F)cc2)c1 (stereo not given) | inactive: 6.75%
CCc1ccc(OP(C)(=O)N2CCN(c3ccc([N+](=O)[O-])cc3)CC2)cc1 (stereo not given) | inactive: -0.05%
CP(=O)(NC(=O)Nc1ccccc1)Oc1ccccc1 (stereo not given) | inactive: -0.42%
O=[N+]([O-])c1cc([N+](=O)[O-])c(O)c([N+](=O)[O-])c1.c1ccc(Oc2ccncc2)cc1 | inactive: -0.1%

Compound | activation
CCOC(=O)c1ccc(NP(C)(=O)Oc2ccc(OC)cc2)cc1 (stereo not given) | inactive: -0.66%
CCOP(C)(=S)SCC(=O)NC(C)C(=O)O (stereo not given) | inactive: 0.23%
CP(=O)(Nc1ccccn1)Oc1ccc(Cl)cc1 (stereo not given) | inactive: -0.68%
CP(=S)(Nn1cnnc1)Oc1ccccc1 (stereo not given) | inactive: 0.86%
CP(=O)(Nc1ccccc1Br)Oc1ccccc1 (stereo not given) | inactive: -2.01%
COc1ccccc1OP(C)(=O)Nc1ccccc1 (stereo not given) | inactive: 0.09%
O=[N+]([O-])c1cc([N+](=O)[O-])c(Nc2cccnc2)c([N+](=O)[O-])c1 | inactive: -1.87%
O=[N+]([O-])c1ccc2c(c1)C=Nc1ccccc1O2 | inactive: -2.2%
Cc1cccc(C)c1OP(C)(N)=O (stereo not given) | inactive: -2.06%
CC(C)(C)c1ccc(OP(C)(=O)Nc2ccc(SC(F)(F)F)cc2)cc1 (stereo not given) | inactive: -0.89%
Cc1ccc(NP(C)(=O)Oc2ccccc2)c(C)c1 (stereo not given) | inactive: -2.72%
COc1ccccc1OP(C)(=O)Nc1ccc(C)cc1 (stereo not given) | inactive: 2.62%
CCOC(=O)c1ccc(NP(C)(=O)Oc2ccccc2)cc1 (stereo not given) | inactive: -1.08%
Cc1cc(C)cc(OP(C)(N)=O)c1 (stereo not given) | inactive: 2.57%
COc1ccc(OP(C)(=O)Nc2cccc(F)c2)cc1 (stereo not given) | inactive: 1.65%
COc1ccccc1OP(C)(=O)Nc1cc(Cl)ccc1C (stereo not given) | inactive: -0.78%
CCN(CC)CCCOC(=O)C(O)(c1ccccc1)c1ccccc1 | inactive: -2.43%
